Earlier results, collected in US6057450A, “Derivatives of pyroglutaminic acid preparation process and applications” (Totiam, S.L., priority 1994, dated 2000).

System: patients with cancer
Conditions: cited from earlier work

Substance: IL-2: Interleukin-2 (IL-2)
- deaths related with the treatment (high doses of IL-2 alone, with LAK cells or TIL, 435 patients, 679 occasions): nine
- patients with myocardial infarction (high doses of IL-2 alone, with LAK cells or TIL, 435 patients): five
- anemia incidence (high doses of IL-2 alone, with LAK cells or TIL): 61%
- hypotension incidence (high doses of IL-2 alone, with LAK cells or TIL, of therapeutical actions): 60%
- somnolence, disorientation and coma (high doses of IL-2 alone, with LAK cells or TIL, patients): 38%
- toxicity and response index, 788 patients (high doses of IL-2 associated to LAK cells, TIL, IFNs, TNF): high toxicity and the low response index
- effect on tumor metastases (patients with favourable prognosis factors): can cause the regression of tumor metastases
